Experimental findings from patent US9073931B2, “Liver X receptor modulators” (Vitae Pharmaceuticals, Inc., priority 2012, dated 2015) are described below.

Sequences of proteins named here, by UniProt entry; tags and fusion partners are left off. Residues count along the entry.
UniProt P55055, 222-460: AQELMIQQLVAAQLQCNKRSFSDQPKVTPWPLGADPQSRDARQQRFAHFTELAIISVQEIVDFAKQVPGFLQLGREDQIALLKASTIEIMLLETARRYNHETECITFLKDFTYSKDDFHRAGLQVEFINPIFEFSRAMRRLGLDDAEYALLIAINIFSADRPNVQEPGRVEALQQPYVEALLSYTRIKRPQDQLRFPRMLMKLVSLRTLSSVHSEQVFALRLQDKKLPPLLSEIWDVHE

Structures are written as SMILES. Like-named read-outs stand apart in the source and are kept apart here. Where only a bound is given, the exact number is not on record here.

Test [1] addresses T1, LBD of LXRβ (Homo sapiens (Human), UniProt P55055). Description: cell-based.
In another test the target is LXR β LBD protein (Homo sapiens (Human), UniProt P55055). Description: LXR β radioligand binding assay (SPA, [3H]T0901317 competition). Particulars: competition with 15 nM [3H]T0901317, LXRβ LBD.
Test [2] deals with T1, LBD of LXRβ.

Regarding `CCC(O)c1cnc(N2CCn3c(nc4cc(CO)c(S(C)(=O)=O)cc43)[C@H]2C(C)C)nc1C(F)(F)F` (single isomer, unassigned) [Compound E10c, 1-(2-(8-(hydroxymethyl)-1-isopropyl-7-(methylsulfonyl)-3,4-dihydrobenzo[4,5]imidazo[1,2-a]pyrazin-2(1H)-yl)-4-(trifluoromethyl)pyrimidin-5-yl)propan-1-ol], at LBD of LXRβ [1], the EC50 came out at 0.012 µM. That is a double-digit nanomolar value.
`CC(C)[C@H]1c2nc3cc(CO)c(S(C)(=O)=O)cc3n2CCN1c1ncc(CO)c(C(F)(F)F)n1` (single isomer, unassigned) [Compound E13b] gave an EC50 on LBD of LXRβ [1] of 1.05 µM. Also, the inhibition constant Ki on LXR β LBD protein was determined as 1.04 µM.
With `CNC(=O)c1cnc(N2CCn3c(nc4cc(CO)c(S(C)(=O)=O)cc43)[C@H]2C(C)C)nc1C(F)(F)F` (single isomer, unassigned) [Compound E16a], at LBD of LXRβ [1], the EC50 was determined as 1.73 µM.
Regarding `CCC(O)c1cnc(N2CCn3c(nc4cc(CO)c(S(C)(=O)=O)cc43)[C@@H]2C(C)C)nc1C(F)(F)F` (single isomer, unassigned) [Compound E10a, 1-(2-(8-(hydroxymethyl)-1-isopropyl-7-(methylsulfonyl)-3,4-dihydrobenzo[4,5]imidazo[1,2-a]pyrazin-2(1H)-yl)-4-(trifluoromethyl)pyrimidin-5-yl)propan-1-ol], the EC50 on LBD of LXRβ [1] amounted to 2.4 µM. The compound further came in with a Ki at LXR β LBD protein greater than 2.5 µM.
On to `CC(O)c1cnc(N2CCn3c(nc4cc(CO)c(S(C)(=O)=O)cc43)[C@@H]2C(C)C)nc1C(F)(F)F` (single isomer, unassigned) [Compound E8a, 1-(2-(8-(hydroxymethyl)-1-isopropyl-7-(methylsulfonyl)-3,4-dihydrobenzo[4,5]imidazo[1,2-a]pyrazin-2(1H)-yl)-4-(trifluoromethyl)pyrimidin-5-yl)ethanol], for which the EC50 on LBD of LXRβ [1] is 2.04 µM. In other words, the single-digit micromolar range.
At LBD of LXRβ [1], `CCC(O)c1cnc(N2CCn3c(nc4cc(CO)c(S(C)(=O)=O)cc43)[C@@H]2C(C)C)nc1C(F)(F)F` (single isomer, unassigned) [Compound E10d, 1-(2-(8-(hydroxymethyl)-1-isopropyl-7-(methylsulfonyl)-3,4-dihydrobenzo[4,5]imidazo[1,2-a]pyrazin-2(1H)-yl)-4-(trifluoromethyl)pyrimidin-5-yl)propan-1-ol] returned a 50% effective concentration (EC50) of 1.66 µM. This EC50 and that of the compound before are within 1.5-fold of each other.
In turn, `CCC(O)c1cnc(N2CCn3c(nc4cc(CO)c(S(C)(=O)=O)cc43)[C@H]2C(C)C)nc1C(F)(F)F` (single isomer, unassigned) [Compound E10b, 1-(2-(8-(hydroxymethyl)-1-isopropyl-7-(methylsulfonyl)-3,4-dihydrobenzo[4,5]imidazo[1,2-a]pyrazin-2(1H)-yl)-4-(trifluoromethyl)pyrimidin-5-yl)propan-1-ol] returned an EC50 at LBD of LXRβ [1] of 0.026 µM.
The same measure, in the same setting: to `CC(O)c1cnc(N2CCn3c(nc4cc(CO)c(S(C)(=O)=O)cc43)[C@H]2C(C)C)nc1C(F)(F)F` (single isomer, unassigned) [Compound E8c, 1-(2-(8-(hydroxymethyl)-1-isopropyl-7-(methylsulfonyl)-3,4-dihydrobenzo[4,5]imidazo[1,2-a]pyrazin-2(1H)-yl)-4-(trifluoromethyl)pyrimidin-5-yl)ethanol] belongs 0.019 µM.
In the case of `CC(O)c1cnc(N2CCn3c(nc4cc(CO)c(S(C)(=O)=O)cc43)[C@@H]2C(C)C)nc1C(F)(F)F` (single isomer, unassigned) [Compound E8d, 1-(2-(8-(hydroxymethyl)-1-isopropyl-7-(methylsulfonyl)-3,4-dihydrobenzo[4,5]imidazo[1,2-a]pyrazin-2(1H)-yl)-4-(trifluoromethyl)pyrimidin-5-yl)ethanol], at LBD of LXRβ [2], the EC50 worked out at 2.04 µM.
`CC(C)[C@@H]1c2nc3cc(CO)c(S(C)(=O)=O)cc3n2CCN1c1ncc(CO)c(C(F)(F)F)n1` (single isomer, unassigned) [Compound E13a]: a half-maximal effect at LBD of LXRβ [1] (EC50) was put at 0.045 µM. The Ki on LXR β LBD protein stood at 0.017 µM.
On LBD of LXRβ [1], `CNC(=O)c1cnc(N2CCn3c(nc4cc(CO)c(S(C)(=O)=O)cc43)[C@@H]2C(C)C)nc1C(F)(F)F` (single isomer, unassigned) [Compound E16b] came in with an EC50 greater than 20 µM. Further, the Ki at LXR β LBD protein is greater than 2.5 µM.
With `CC(O)c1cnc(N2CCn3c(nc4cc(CO)c(S(C)(=O)=O)cc43)[C@H]2C(C)C)nc1C(F)(F)F` (single isomer, unassigned) [Compound E8b, 1-(2-(8-(hydroxymethyl)-1-isopropyl-7-(methylsulfonyl)-3,4-dihydrobenzo[4,5]imidazo[1,2-a]pyrazin-2(1H)-yl)-4-(trifluoromethyl)pyrimidin-5-yl)ethanol], the EC50 on LBD of LXRβ [1] is 0.021 µM.

The term EC50 denotes the concentration at which the effect is half-maximal. A word on the Ki: it is the equilibrium dissociation constant of an inhibitor or competing ligand from its target. Low values mean a stronger hold on the target, high ones a looser hold on the target.
